What is called inhibition is the drop in the measured response relative to a control, in per cent.

Chains of the proteins cited; added tags and fusions are not shown.
UniProt P51452, whole entry: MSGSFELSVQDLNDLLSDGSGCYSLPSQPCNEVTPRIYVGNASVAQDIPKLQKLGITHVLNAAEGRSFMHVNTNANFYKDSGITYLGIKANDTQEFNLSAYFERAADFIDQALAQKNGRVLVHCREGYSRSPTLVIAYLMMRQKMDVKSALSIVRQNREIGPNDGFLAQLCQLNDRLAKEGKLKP

These results are taken from PubChem BioAssay AID1654 (Sanford-Burnham Center for Chemical Genomics, 2009).

Only a part is listed here, and it is no random draw. The source made the active and inactive calls. Cut-off read from the data, not from the text of the source: active = inhibition above about 50%; inactive = the rest.

In this test the target is Dual specificity protein phosphatase 3 (Homo sapiens) (UniProt P51452). The experiment in a line: VHR1 phosphatase inhibitors, primary screen, biochemical, absorbance, uHTS (AID 1654). Particulars: recombinant VHR phosphatase, pNPP absorbance; at 13.3 µM; stronger effect = higher value.
`CCC(CO)(C(=O)OC1CN2CCC1CC2)c1ccccc1` (configuration not stated): the inhibition is inactive: -10.1%.

Turning to `COc1cc(OC)cc(C(=O)NCC2(N3CCOCC3)CCCCC2)c1`, the inhibition was inactive: 13.9%.

Take `CCCOc1ccc(C)cc1CN(CCCl)CCCl`: the inhibition is inactive: -0.9%.

As for `CN1CCC(Nc2ccc(Cl)cc2)CC1`, the inhibition was inactive: -7.9%.

Turning to `CCOc1ncccc1C(=O)NCC1(N2CCOCC2)CCCCC1`, the inhibition was inactive: 10.5%.

For `CN1CCC(Nc2ccc(F)c(Cl)c2)CC1`, the inhibition was inactive: 21.9%.

Consider `CCCOc1ccc(C(=O)NCC2(N(C)C)CCCCC2)cc1`, for which the inhibition is inactive: 27.4%.

Regarding `CC(C)(C)OC(=O)N1CCC(Nc2ccccc2)CC1`, the inhibition is inactive: 5.5%.

On to `O=C(O)C1(Nc2ccccc2)CCN(Cc2ccccc2)CC1`, for which the inhibition is inactive: 26.3%.

In the case of `CCN1CCC(Nc2cccc(F)c2)CC1`, the inhibition was inactive: 31.5%.

Consider `CN(C)c1ccc(C(=O)NCC2(N3CCCCC3)CCCCC2)cc1`, for which the inhibition was inactive: 33.3%.

On to `COc1cc(OC)cc(C(=O)NCC2(N3CCCCC3)CCCCC2)c1`, for which the inhibition is inactive: 13%.

`Fc1ccccc1NC1CCN(Cc2ccccc2)CC1`: the inhibition is inactive: -14.1%.

With `c1ccc(CN2CCC(Nc3ccccc3)CC2)cc1`, the inhibition was inactive: -1.7%.

On to `CCCN1CCC(Nc2cc(OC)cc(OC)c2)CC1`, for which the inhibition is inactive: 0.7%.

Take `CN(C)C1(CNC(=O)c2cccc(C#N)c2)CCCCC1`: the inhibition was inactive: 6%.

`CC(C)(C)OC(=O)N1CCC(N(C(=O)c2ccccc2)c2ccc(Cl)cc2)CC1`: the inhibition is inactive: 13.3%.

With `N#Cc1ccc(C(=O)NCC2(N3CCCCC3)CCCCC2)cc1`, the inhibition is inactive: 22.6%.

In the case of `N/C(=N\O)c1c(N)no[n+]1[O-]`, the inhibition is inactive: 13.8%.

With `CCOC(=O)N1CCC(Nc2ccc(C)cc2)CC1`, the inhibition was inactive: 4.9%.

Turning to `O=C(OC1CN2CCC1CC2)C1c2ccccc2C=Cc2ccccc21` (configuration not stated), the inhibition is inactive: -1.5%.

As to `COc1ccc(C(=O)NCC2(N3CCOCC3)CCCCC2)cc1OC`, the inhibition is inactive: 24.9%.

On to `CCCOc1ccc(C(=O)NCC2(N(C)C)CCCCC2)cc1OC`, for which the inhibition was inactive: 27.4%.

`COc1ccc(CN(CCCl)CCCl)cc1Cl`: the inhibition is inactive: 15.1%.

Regarding `CN(C)c1cccc(C(=O)NCC2(N3CCCCC3)CCCCC2)c1`, the inhibition was inactive: 13%.

Consider `CC(C)c1ccc(NC2CCN(C(=O)OC(C)(C)C)CC2)cc1`, for which the inhibition is inactive: 24.4%.

Turning to `COc1cc(OC)c(C(=O)NCC2(N(C)C)CCCCC2)cc1OC`, the inhibition was inactive: -2%.

Turning to `O=C(NCC1(N2CCCCC2)CCCCC1)c1cccc(C(F)(F)F)c1`, the inhibition was inactive: -2.7%.

For `COc1ccc(NC2CCN(C(=O)OC(C)(C)C)CC2)cc1`, the inhibition is inactive: 20.6%.

`CN1CCN(CCOC(=O)C(O)(c2ccccc2)c2ccccc2)CC1`: the inhibition is inactive: 1.7%.

Turning to `O=C(NCC1(N2CCOCC2)CCCCC1)c1cc(=O)[nH]c2ccccc12`, the inhibition was inactive: -8.1%.

Regarding `COc1cc(C(=O)NCC2(N3CCCCC3)CCCCC2)ccc1OC(F)F`, the inhibition is inactive: 6.7%.

For the molecule `O=C(NCC1(N2CCCCC2)CCCCC1)c1ccc(OC(F)F)cc1`, the inhibition is inactive: 23.1%.

As for `O=C(NCC1(N2CCCCC2)CCCCC1)c1cccc([N+](=O)[O-])c1`, the inhibition is inactive: 18.8%.

In the case of `CCN1CCC(Nc2ccc(Cl)cc2)CC1`, the inhibition was inactive: 0.3%.

As for `N#CC1(Nc2ccccc2)CCN(CCc2ccccc2)CC1`, the inhibition was inactive: 16.5%.

Take `COc1cc(C(=O)NCC2(N(C)C)CCCCC2)ccc1OC(F)F`: the inhibition is inactive: 27.4%.

Take `CCOC(=O)N1CCC(Nc2cccc(C)c2)CC1`: the inhibition is inactive: 4.4%.

With `Cc1ccc(OCC(C)C)c(CN(CCCl)CCCl)c1`, the inhibition was inactive: 16.6%.

On to `CCOc1ccc(C)cc1CN(CCCl)CCCl`, for which the inhibition was inactive: 9.6%.

Take `O=C(NCC1(N2CCCCC2)CCCCC1)c1ccc(F)cc1`: the inhibition was active: 52%.

Consider `CCOC(=O)N1CCC(Nc2ccc(F)cc2)CC1`, for which the inhibition is inactive: -8.4%.

As to `COc1ccc(NC2CCN(CCc3ccccc3)CC2)c(OC)c1`, the inhibition was inactive: 37.6%.

As for `O=C(NCC1(N2CCOCC2)CCCCC1)c1cc2ccccc2o1`, the inhibition was inactive: 11.9%.

With `Cc1cc(C)cc(N(C(=O)c2ccccc2)C2CCN(C(=O)OC(C)(C)C)CC2)c1`, the inhibition was inactive: 13.8%.

Consider `CCOC(=O)N1CCC(Nc2ccc(OC)cc2)CC1`, for which the inhibition was inactive: 18.4%.

As to `O=C(OC1CN2CCC1CC2)C1c2ccccc2Oc2ccccc21` (configuration not stated), the inhibition is inactive: 15.3%.

`N#CC1(Nc2ccccc2)CCN(Cc2ccccc2)CC1`: the inhibition is inactive: 8.7%.

Consider `O=C(NCC1(N2CCCCC2)CCCCC1)c1ccc(=O)[nH]c1`, for which the inhibition is inactive: 1.8%.

With `COc1ccc(C(=O)NCC2(N3CCCCC3)CCCCC2)cc1`, the inhibition is inactive: 35.8%.

Take `COc1ccc(C(=O)NCC2(N3CCCCC3)CCCCC2)c(OC)c1OC`: the inhibition is inactive: 5.1%.

Take `CSc1ccccc1C(=O)NCC1(N2CCCCC2)CCCCC1`: the inhibition is inactive: 45.6%.
